Test system: serotonin transporter
[1] = 1 mg/kg IV at 8 h post-radiotracer, n=2

Question: Which “Percent Displacement in [123I]p ZIENT (BPND), Basal Ganglia” value [1] does the source give for `CNCCC(Oc1ccccc1OC)c1ccccc1` (stereo not shown) [Nisoxetine, nisoxetine] here?
Answer: 4%

Question: And the “Percent Displacement in [123I]p ZIENT (BPND), Brainstem” value [1]?
Answer: 2%

Question: And the “Percent Displacement in [123I]p ZIENT (BPND), Diencephalon” value [1]?
Answer: 5%

Question: And the “Percent Displacement in [123I]p ZIENT (BPND), Hippocampus” value [1]?
Answer: 9%

Question: And the “Percent Displacement in [123I]p ZIENT (BPND), Temporal Cortex” value [1]?
Answer: 8%

Question: What about the “displacement (change) of [123I]p ZIENT in diencephalon and brainstem” value (1 mg/kg at 8 h post-radiotracer) of the same compound?
Answer: < 10%

Question: What about the “displacement of [123I]p ZIENT in all regions studied, in words” value (IV at 8 h post-radiotracer, fluoxetine 1.5, 2.5, citalopram 5, methylphenidate 0.5, nisoxetine 1 mg/kg) of the same compound?
Answer: no significant changes
